# In ChEMBL document CHEMBL1135657, “Novel dual inhibitors of AChE and MAO derived from hydroxy aminoindan and phenethylamine as potential treatment for Alzheimer's disease” (J Med Chem, 2002):
# The chains behind the UniProt entries cited, without tags or fusion partners.
# UniProt P19643, whole entry: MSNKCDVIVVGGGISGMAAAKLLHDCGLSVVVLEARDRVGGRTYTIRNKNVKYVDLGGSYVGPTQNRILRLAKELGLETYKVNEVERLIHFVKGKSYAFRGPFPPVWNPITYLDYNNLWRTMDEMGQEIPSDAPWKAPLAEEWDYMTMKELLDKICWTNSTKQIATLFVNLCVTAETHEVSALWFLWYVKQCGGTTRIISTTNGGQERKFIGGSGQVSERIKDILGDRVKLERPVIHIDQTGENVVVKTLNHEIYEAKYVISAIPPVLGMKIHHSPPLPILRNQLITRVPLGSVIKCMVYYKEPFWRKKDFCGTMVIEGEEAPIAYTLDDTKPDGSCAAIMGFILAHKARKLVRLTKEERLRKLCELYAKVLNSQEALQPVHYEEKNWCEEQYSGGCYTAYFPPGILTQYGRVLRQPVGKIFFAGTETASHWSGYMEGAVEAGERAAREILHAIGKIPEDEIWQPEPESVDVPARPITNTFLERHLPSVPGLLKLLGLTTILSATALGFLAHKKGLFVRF
# UniProt Q9N1N9, whole entry: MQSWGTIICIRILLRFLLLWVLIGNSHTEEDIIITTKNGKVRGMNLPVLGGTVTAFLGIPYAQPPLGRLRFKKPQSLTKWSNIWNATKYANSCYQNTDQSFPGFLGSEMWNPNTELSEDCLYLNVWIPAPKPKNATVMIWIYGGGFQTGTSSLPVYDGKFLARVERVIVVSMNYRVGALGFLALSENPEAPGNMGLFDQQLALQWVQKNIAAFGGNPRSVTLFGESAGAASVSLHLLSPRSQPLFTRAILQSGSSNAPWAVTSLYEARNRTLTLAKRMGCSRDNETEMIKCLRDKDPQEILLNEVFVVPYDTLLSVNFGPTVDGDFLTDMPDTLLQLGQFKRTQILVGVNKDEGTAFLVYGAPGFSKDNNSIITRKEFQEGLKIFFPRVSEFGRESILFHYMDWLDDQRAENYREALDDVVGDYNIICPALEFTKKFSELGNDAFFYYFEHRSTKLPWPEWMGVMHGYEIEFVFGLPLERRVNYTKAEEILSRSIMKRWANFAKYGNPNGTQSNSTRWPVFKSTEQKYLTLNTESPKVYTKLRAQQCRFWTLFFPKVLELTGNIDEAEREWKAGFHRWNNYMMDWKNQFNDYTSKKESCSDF
# Tests used:
# [1] = target: Amine oxidase [flavin-containing] B (Rattus norvegicus, UniProt P19643); test: In vitro inhibitory concentration against Monoamine oxidase B of rat brain homogenates; value ranges from 0.27-0.36; type: tissue-based
# Butyrylcholinesterase = Butyrylcholinesterase (Equus caballus, UniProt Q9N1N9); test: In vitro inhibitory concentration against Butyrylcholinesterase of horse serum; value ranges from 0.81-0.86
compound,measurement,setting,value
C#CCNC(C)Cc1ccccc1 (configuration not stated),IC50,[1],320 nM
CCN(C)C(=O)Oc1cccc([C@H](C)N(C)C)c1 [RIVASTIGMINE],IC50,Butyrylcholinesterase,830 nM
